# The source made the active and inactive calls. The calls are words filed in the database; no cut-off is given here.
# The chains behind the UniProt entries cited, without tags or fusion partners. Where a name states a change or a piece, a line headed by the entry shows the natural chain unless it says otherwise.
# UniProt P10275: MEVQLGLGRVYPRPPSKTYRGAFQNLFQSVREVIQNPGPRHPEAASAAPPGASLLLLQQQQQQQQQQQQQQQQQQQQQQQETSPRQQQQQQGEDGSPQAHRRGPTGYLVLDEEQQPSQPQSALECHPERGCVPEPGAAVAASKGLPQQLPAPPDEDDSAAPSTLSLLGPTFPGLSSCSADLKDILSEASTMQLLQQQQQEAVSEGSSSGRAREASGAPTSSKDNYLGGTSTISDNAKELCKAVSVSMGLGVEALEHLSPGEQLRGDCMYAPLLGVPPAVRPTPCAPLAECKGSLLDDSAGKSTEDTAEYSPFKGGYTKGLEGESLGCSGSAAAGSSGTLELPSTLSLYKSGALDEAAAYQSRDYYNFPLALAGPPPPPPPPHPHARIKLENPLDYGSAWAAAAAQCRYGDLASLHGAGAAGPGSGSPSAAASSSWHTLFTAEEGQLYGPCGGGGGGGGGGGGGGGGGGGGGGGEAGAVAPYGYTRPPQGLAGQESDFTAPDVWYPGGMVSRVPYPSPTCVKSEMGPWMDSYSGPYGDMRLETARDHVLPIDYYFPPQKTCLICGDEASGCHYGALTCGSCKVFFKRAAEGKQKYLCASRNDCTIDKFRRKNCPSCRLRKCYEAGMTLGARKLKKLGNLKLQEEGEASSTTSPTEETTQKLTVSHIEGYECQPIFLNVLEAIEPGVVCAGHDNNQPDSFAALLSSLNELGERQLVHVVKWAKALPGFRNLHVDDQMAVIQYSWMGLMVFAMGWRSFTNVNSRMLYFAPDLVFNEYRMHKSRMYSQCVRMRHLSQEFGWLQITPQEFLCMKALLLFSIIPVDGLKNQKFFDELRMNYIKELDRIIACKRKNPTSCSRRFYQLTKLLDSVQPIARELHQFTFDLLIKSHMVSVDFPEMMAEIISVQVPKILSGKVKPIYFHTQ
# Key:
# Androgen receptor [1] = target: T1, Androgen receptor (Homo sapiens, UniProt P10275); test: Antagonist activity at DHT-induced Androgen receptor in human LNCaP cells assessed as inhibition of receptor dimerization incubated for 4 hrs by NanoBiT analysis; assay type: cell-based; conditions: filed as antagonist, dose 4.0 µM
# Androgen receptor [2] = target: T1, Androgen receptor; test: Antagonist activity at DHT-induced Androgen receptor in human LNCaP cells assessed as inhibition of receptor dimerization at 10 uM incubated for 4 hrs by NanoBiT analysis; assay type: cell-based; conditions: filed as antagonist
smiles,measurement,setting,value
Cc1oc(-c2cccc(C(F)(F)F)c2)cc1C(=O)Nc1nc(CN2CCOCC2)ns1,Activity,Androgen receptor [1],Dose-dependent-effect
same,Activity,Androgen receptor [2],Active

# Source: ChEMBL document CHEMBL6120968, “Discovery of Thiadiazoleamide Derivatives as Potent, Selective, and Orally Available Antagonists Disrupting Androgen Receptor Homodimer” (J Med Chem, 2024)
